Measured values: patent publication US20190315775A1, “MODIFIED […] AND PHARMACEUTICAL COMPOSITION HAVING SAME AS ACTIVE INGREDIENT” (KEIO UNIVERSITY, priority 2016, published 2019)
Entries after “also recorded” stand apart in the source; their conditions may differ.

Tested on: various high-risk MM cells (KMM1, KMS11, KMS21, KMS26, KMS27, KMS28, KMS34, MUM24)
Experiment: MTT cell viability of various MM cells, PEG11(E)-TC11 vs lenalidomide (Example 9)
Format: cell-based, human
Conditions: including high-risk MM cells KMS11, KMS28, KMS34, 0-100 μM, 48 hours, FIG. 5B
Excerpt: MM cell lines (KMM1, KMS11, KMS21, KMS26, KMS27, KMS28, KMS34) used herein were those established by Takemi Otsuki et al., of Kawasaki Medical School (Otsuki, T. et al., Int. J. Oncol., 15: 1205-1212, 1999).

## Nc1cccc2c1CN(C1CCC(=O)NC1=O)C2=O (stereo not shown) [lenalidomide]
  In vitro cell proliferation inhibitory activity against myeloma cells other than KMS21 and MUM24: did not exhibit in vitro cell proliferation inhibitory activity; also recorded: no in vitro cell proliferation inhibitory activity
